Test system: S. cerevisiae strain A3365 expressing C-terminally truncated Ste2p
Experiment: Growth arrest halo assay
Format: cell-based, Saccharomyces cerevisiae

[Lys^7,Phe^13(2,3,4,5,6-F5)]α-factor
lowest concentration at which a halo formed (did not form a halo until this concentration): 12.5 µM
fold less active than α-factor in halo assay (from the concentrations giving an 18 mm halo): about 130 fold

— publication PMC2900185 (Biochemistry, 2010)
